Molecules are shown by their SMILES. Several values for one entry are separate records, joined by “and”; a condition that tells them apart may be missing. Identical values can stand only once.

The test system of assay [1] is dog renal artery strips (ET-1-induced contraction). Description: Test A: inhibition of contraction induced by ET-1 in dog renal artery strips to generate Kb values. It is filed as cell-based, beagle dogs. The following applies: Canis lupus familiaris, 1.25 h, read-out: Apparent Kb. From the text: Inhibition of Contraction Induced by ET-1 in Dog Renal Artery Strips to Generate Kb Values
A Kb value is a measure of functional activity, and this is taken to be the free plasma concentration of a test compound required to provide efficacy.
Renal arteries from beagle dogs (body weight 9-15 kg) were cut into spirals and divided into 5 mm long strips. The side of each strip that was adjacent to the lumen of the vessel was gently rubbed to remove the endothelium. […] The tension generated by each strip was recorded isometrically. After incubating the tissues with test compound for 75 minutes, cumulative concentration response curves were constructed to ET-1 in the presence of 10 μM Bestatin, 10 μM Captopril, 10 μM Thiorphan, 50 μM indomethacin and 0.001% BSA. Only a single ET-1 curve was constructed in each tissue and tension increases expressed as a percentage of the response to 120mM KCl determined before the addition of the test compound. […] This is the ratio of the EC50 in the presence of the test compound divided by the EC50 in its absence. The DR is then put into the following equation:
apparent pKb=log(DR−1)−log[B] (where B=molar concentration of test compound)

Assay [2] has as its system ET-1-induced pressor response. Description: Test C: inhibition of ET-1-induced pressor response in conscious beagle dogs. It is filed as in vivo. Here is the method:
Inhibition of ET-1-induced Pressor Response in Conscious Beagle Dogs
Studies were performed in surgically prepared conscious beagle dogs (13-17 kg) which were well adjusted to the laboratory environment. Surgical preparation was performed under recovery anaesthesia to insert an indwelling aortic catheter with external access between the scapulae and protruding subcutaneous ECG studs, positioned for the recording of lead 11 electrocardiograms. During studies dogs were placed, unrestrained, in “Pavlov” type slings. The aortic catheter was connected to a pressure transducer for the measurement of systemic arterial pressure and ECG studs, via patient cables, to a bio-amplifier for the recording of electrocardiograms. ET-1 was administered as a 15 min infusion (25 pmoles/kg/min) via a temporary catheter inserted into the saphenous vein. Test compound or placebo was administered by oral gavage (0.5 or 2.0 mg/kg) at 1 and 24 hours prior to the infusion of ET-1. Individual studies investigated no more than a single dose of test compound or placebo at any one time. Systemic arterial pressure and electrocardiograms were recorded for one hour prior to and one hour after the start of the infusion of ET-1. Test compounds were evaluated by comparing the effects of placebo or test compound on the magnitude of pressor response elicited by ET-1.

The mark [3] stands for this setting: Canis lupus familiaris, po, read-out: % inhibition of ET-1-induced pressor response.

For `COc1ccccc1Oc1c(NS(=O)(=O)C=Cc2ccccc2)nc(-c2ncccn2)nc1OC` [COMPOUND Y, N-[6-methoxy-5-(2-methoxyphenoxy)-2-(2-pyrimidinyl)-4-pyrimidinyl]-2-phenylethensulphonamide], the Kb in assay [1] was determined as 58 nM. Also, in assay [2] (setting [3]), the inhibition at 0.5 mg/kg was determined as 57% and the inhibition at 2 mg/kg worked out at 44%. In assay [2] (dog, in vivo), the “Change in arterial pressure elicited by ET-1” value is 7 ΔmmHg and 13 ΔmmHg.

(Values after patent US20020037903A1, “Use of pyrimidine endothelin antagonists in companion animals” (priority 2000, published 2002).)
